Structures are written as SMILES.

Sequences of proteins named here, by UniProt entry; tags and fusion partners are left off. A change or cut given only in a name is not applied to a line headed by its entry.
UniProt O60894: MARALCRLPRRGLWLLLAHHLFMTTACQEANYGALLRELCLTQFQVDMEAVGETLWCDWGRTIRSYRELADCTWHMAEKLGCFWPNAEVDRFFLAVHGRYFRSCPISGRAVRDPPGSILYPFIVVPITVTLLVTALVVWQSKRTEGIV
UniProt Q16602: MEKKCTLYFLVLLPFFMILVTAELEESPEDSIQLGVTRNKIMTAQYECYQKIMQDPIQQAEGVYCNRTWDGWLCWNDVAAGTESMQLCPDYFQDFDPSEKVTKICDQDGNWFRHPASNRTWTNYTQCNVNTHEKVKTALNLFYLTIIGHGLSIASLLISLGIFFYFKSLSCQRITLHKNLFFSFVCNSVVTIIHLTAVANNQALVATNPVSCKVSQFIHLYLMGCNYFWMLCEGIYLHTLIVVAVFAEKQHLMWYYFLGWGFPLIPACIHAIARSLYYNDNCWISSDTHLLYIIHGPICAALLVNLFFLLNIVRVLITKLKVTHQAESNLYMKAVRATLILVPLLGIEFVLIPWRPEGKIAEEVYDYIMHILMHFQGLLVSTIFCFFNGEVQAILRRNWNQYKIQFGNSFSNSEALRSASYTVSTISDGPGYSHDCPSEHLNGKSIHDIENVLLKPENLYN
UniProt O60895: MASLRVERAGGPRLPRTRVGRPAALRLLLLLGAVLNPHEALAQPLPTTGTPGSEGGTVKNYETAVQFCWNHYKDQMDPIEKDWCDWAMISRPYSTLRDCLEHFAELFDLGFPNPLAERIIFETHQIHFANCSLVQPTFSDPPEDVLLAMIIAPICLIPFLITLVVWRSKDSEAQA

Test [1] has as its target Calcitonin-gene-related peptide receptor, CALCRL/RAMP1 (Homo sapiens, UniProt O60894+Q16602). The experiment in a line: Agonist activity at human CGRPR complex of CRLR/RAMP1 transduced in human HeLa cells by cAMP assay. It counts as functional, cell-based.
Test [2] deals with Amylin receptor AMY1, CALCR/RAMP1 (Homo sapiens, UniProt O60894+P30988). The experiment in a line: Agonist activity at human AMY1R complex of CTR/RAMP1 transduced in human HeLa cells by cAMP assay. Format: functional, cell-based.
Test [3] deals with Adrenomedullin receptor, AM2; CALCRL/RAMP3 (Homo sapiens, UniProt O60896+Q16602). The experiment in a line: Agonist activity at human AM2R complex of CRLR/RAMP3 transduced in human HeLa cells by cAMP assay. It counts as functional, cell-based.
Test [4] deals with T1, Calcitonin receptor (Rattus norvegicus, UniProt P32214).
T1 sequence (P32214 whole entry): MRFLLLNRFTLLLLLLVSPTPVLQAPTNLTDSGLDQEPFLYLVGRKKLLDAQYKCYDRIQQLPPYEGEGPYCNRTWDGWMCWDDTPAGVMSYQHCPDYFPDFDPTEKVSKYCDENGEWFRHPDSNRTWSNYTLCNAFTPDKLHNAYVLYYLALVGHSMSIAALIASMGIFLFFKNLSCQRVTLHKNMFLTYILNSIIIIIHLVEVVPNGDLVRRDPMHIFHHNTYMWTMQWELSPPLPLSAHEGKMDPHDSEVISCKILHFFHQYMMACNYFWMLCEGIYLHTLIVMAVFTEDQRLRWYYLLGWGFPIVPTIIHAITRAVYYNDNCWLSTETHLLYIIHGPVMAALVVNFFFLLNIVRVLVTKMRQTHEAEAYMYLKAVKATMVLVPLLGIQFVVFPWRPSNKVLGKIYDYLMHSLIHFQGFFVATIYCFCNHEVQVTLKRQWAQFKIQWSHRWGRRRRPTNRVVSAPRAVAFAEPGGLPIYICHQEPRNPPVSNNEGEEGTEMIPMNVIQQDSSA
The experiment in a line: Displacement of 125I-Calcitonin from rat CTR expressed in Baby hamster kidney cell membrane incubated for 120 mins by SPA method. It counts as cell membranes.

The target of test [5] is T2, Calcitonin receptor (Homo sapiens, UniProt P30988).
T2 sequence (P30988 whole entry): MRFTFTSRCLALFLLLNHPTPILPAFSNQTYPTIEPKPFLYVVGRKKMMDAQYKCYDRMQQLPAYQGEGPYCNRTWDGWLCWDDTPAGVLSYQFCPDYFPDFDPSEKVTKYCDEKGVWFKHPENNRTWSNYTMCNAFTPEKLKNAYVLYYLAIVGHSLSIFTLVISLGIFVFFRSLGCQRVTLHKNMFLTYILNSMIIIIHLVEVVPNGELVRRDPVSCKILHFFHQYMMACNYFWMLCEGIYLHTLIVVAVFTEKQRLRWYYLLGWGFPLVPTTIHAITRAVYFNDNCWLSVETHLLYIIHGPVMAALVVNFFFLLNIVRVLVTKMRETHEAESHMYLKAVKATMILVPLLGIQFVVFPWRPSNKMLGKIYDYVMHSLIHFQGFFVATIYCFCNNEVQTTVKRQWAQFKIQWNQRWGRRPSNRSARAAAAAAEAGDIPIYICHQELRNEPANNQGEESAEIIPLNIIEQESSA
The experiment in a line: Displacement of 125I-Calcitonin from human CTR expressed in Baby hamster kidney cell membrane incubated for 120 mins by SPA method. It counts as cell membranes.

The target in test [6] is T2, Calcitonin receptor. The experiment in a line: Agonist activity at human CTR transduced in human HeLa cells by cAMP assay. Format: functional, cell-based.
Test [7] deals with T3, Amylin receptor AMY3; CALCR/RAMP3 (Homo sapiens, UniProt O60896+P30988).
T3 sequence (P30988 whole entry): T2 sequence (P30988 whole entry)
T3 sequence (O60896 whole entry): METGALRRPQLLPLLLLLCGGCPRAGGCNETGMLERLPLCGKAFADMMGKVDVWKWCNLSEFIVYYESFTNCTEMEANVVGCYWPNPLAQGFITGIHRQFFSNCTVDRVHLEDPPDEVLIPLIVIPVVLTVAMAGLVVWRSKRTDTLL
The experiment in a line: Displacement of 125I-rat amylin from human AMY3R complex of CTR/RAMP3 expressed in Baby hamster kidney cell membrane incubated for 120 mins by SPA method. Format: cell membranes.

Test [8] concerns the target T2, Calcitonin receptor. The experiment in a line: Agonist activity at human CTR expressed in Baby hamster kidney cells incubated for 3 hrs followed by medium replacement without compound measured after 30 mins by luciferase reporter assay. It counts as functional, cell-based, Baby hamster kidney cell.
Test [9] addresses T3, Amylin receptor AMY3; CALCR/RAMP3. The experiment in a line: Agonist activity at human AMY3R complex of CTR/RAMP3 transduced in human HeLa cells by cAMP assay. Format: functional, cell-based.
Test [10] addresses T1, Calcitonin receptor. The experiment in a line: Agonist activity at rat CTR expressed in Baby hamster kidney cells incubated for 3 hrs by cAMP assay. Format: functional, cell-based, Baby hamster kidney cell.
Test [11] has as its target T4, Amylin receptor AMY3; CALCR/RAMP3 (Rattus norvegicus, UniProt P32214+Q9JJ73).
T4 sequence (P32214 whole entry): T1 sequence (P32214 whole entry)
T4 sequence (Q9JJ73 whole entry): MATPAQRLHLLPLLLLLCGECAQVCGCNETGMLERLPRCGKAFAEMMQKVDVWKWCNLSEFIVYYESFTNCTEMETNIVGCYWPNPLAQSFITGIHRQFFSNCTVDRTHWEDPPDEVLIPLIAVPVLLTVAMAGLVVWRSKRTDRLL
The experiment in a line: Agonist activity at rat AMY3R complex of CTR/RAMP3 expressed in Baby hamster kidney cells incubated for 3 hrs by cAMP assay. It counts as functional, cell-based, Baby hamster kidney cell.

Test [12] concerns the target Amylin receptor AMY2; CALCR/RAMP2 (Homo sapiens, UniProt O60895+P30988). The experiment in a line: Agonist activity at human AMY2R complex of CTR/RAMP2 transduced in human HeLa cells by cAMP assay. It counts as functional, cell-based.
Test [13] has as its target T4, Amylin receptor AMY3; CALCR/RAMP3. The experiment in a line: Displacement of 125I-rat amylin from rat AMY3R complex of CTR/RAMP3 expressed in Baby hamster kidney cell membrane incubated for 120 mins by SPA method. Format: cell membranes.

With `CC[C@H](C)[C@H](NC(=O)[C@@H]1CCCN1C(=O)CNC(=O)[C@H](Cc1ccccc1)NC(=O)[C@H](CC(N)=O)NC(=O)[C@H](CC(N)=O)NC(=O)[C@H](CO)NC(=O)[C@H](CO)NC(=O)[C@H](Cc1c[nH]cn1)NC(=O)[C@@H](NC(=O)[C@H](CC(C)C)NC(=O)[C@H](Cc1ccccc1)NC(=O)[C@H](CC(N)=O)NC(=O)[C@H](C)NC(=O)[C@H](CC(C)C)NC(=O)[C@H](CCCNC(=N)N)NC(=O)[C@H](CCC(N)=O)NC(=O)[C@@H](NC(=O)[C@H](C)NC(=O)[C@@H]1CSSC[C@H](NC(=O)[C@@H](N)CCCCN)C(=O)N[C@@H](CC(N)=O)C(=O)N[C@@H]([C@@H](C)O)C(=O)N[C@@H](C)C(=O)N[C@@H]([C@@H](C)O)C(=O)N1)[C@@H](C)O)C(C)C)C(=O)N[C@@H](CC(C)C)C(=O)N1CCC[C@H]1C(=O)N1CCC[C@H]1C(=O)N[C@H](C(=O)N[C@@H](CC(N)=O)C(=O)N[C@H](C(=O)NCC(=O)N[C@@H](CO)C(=O)N[C@@H](CC(N)=O)C(=O)N[C@H](C(=O)N[C@@H](Cc1ccc(O)cc1)C(N)=O)[C@@H](C)O)C(C)C)[C@@H](C)O` [PRAMLINTIDE], the EC50 in test [1] is 23.4 nM; in test [2], 0.0219 nM; in test [3], 148 nM; at Calcitonin receptor [6], 0.331 nM; on Calcitonin receptor [8], 0.07 nM; in test [9], 0.0295 nM. Also, the EC50 at Calcitonin receptor [10] was 1.82 nM; in test [11], 4 pM; in test [12] it was 0.0646 nM. The IC50 at Calcitonin receptor [4] was 5.83 nM; on Calcitonin receptor [5] it was 1.49 nM; in [7], 0.114 nM; in [13], 0.122 nM.
